Results on one compound are retold here after US11607419B2, “Inhibitors of RAC1 and uses thereof for inducing bronchodilatation” (INSTITUT NATIONAL DE LA SANTE ET DE LA RECHERCHE MEDICALE …, priority 2017, dated 2023).

One assay concerns 3T3 cells migration. Briefly: Unidirectional cell migration. In kind it is cell-based. The method, then:
Unidirectional cell migration. Cells (1000/well) were seeded in a 96 well plate with […] fibronectin stripes (CytooPlates Motility, CYTOO) in medium with 1% SVF and allowed to spread for 4 hours before capturing time-lapse images for 24 hours (image/10 minutes) on a Widefield Leica DMI 6000B drove with Metamorph software. Cells speed was measured with ImageJ software.

The test system of assay [1] is Rac1-dependent ruffle formation in NIH3T3 cells. Briefly: Rac activator-induced membrane ruffling (actin staining) in fibroblasts. The following applies: added 1 h before Rac activation. In kind it is cell-based. The method, then: Cell culture, transfection and actin staining. NIH3T3 cells grew up in DMEM (Gibco; Invitrogen) containing 10% foetal bovine serum, 100 units/mL penicillin and 100 μg/mL streptomycin at 37° C. and 5% CO2. The culture medium was changed every 72 hours.
After treatments, fibroblasts were fixed with 4% paraformaldehyde in PBS, permeabilized in PBS 0.5% Triton X-100, and incubated with 130 μg/mL of FITC-conjugated phalloidin (Sigma) to visualize F-actin. After staining, images were captured by a fluorescence microscope (Nikon). The actin cytoskeleton organization was analyzed to observe Rac1-dependent ruffle formation.

On to `CCN(CC)CCCC(C)Nc1nc(C)cc(Nc2ccc3nc(C)cc(N)c3c2)n1` (centres unmarked) [NSC23766, reference compound], for which, in the assay with 3T3 cells migration, the “migration rate of the cells” value was “slow down”. Besides, in assay [1], the “efficiency of Rac activator to induce ruffle” value is given as “strongly decreased”.
